# Binding of CDR-mutated scFvs to a peptide of the spike HR2 region

All variants were tested on one target, the spike HR2 peptide PDVDLGDISGINAS (SARS-CoV-2).

Parent scFv Ab-14: VH joined to VL by a (GGGGS)3 linker. Changes lie in the light chain CDRs alone.
VH: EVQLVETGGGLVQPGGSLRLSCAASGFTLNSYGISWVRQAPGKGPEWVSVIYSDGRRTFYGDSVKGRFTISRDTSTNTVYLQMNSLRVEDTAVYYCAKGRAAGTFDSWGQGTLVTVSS
VL: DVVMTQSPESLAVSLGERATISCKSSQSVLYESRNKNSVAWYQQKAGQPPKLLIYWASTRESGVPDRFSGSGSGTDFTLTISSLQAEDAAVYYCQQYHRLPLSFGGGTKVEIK

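The parent was found by panning a naive human phage display library on the peptide. The variants were designed computationally from a first round of random CDR variants and then made and measured. Several design methods are mixed in this list. Affinity was read by AlphaSeq, a pooled yeast mating assay with surface-displayed partners. Pairs that bind mate more often; barcode pairs of the diploids are counted by sequencing. A regression on co-assayed BCL2-family reference pairs converts the normalised counts of each replicate to an apparent Kd. Each pool was mated in six replicate cultures.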

Changes read parent residue, position, new residue, counted from the first residue of the VL shown.
This list holds designs with at most six substitutions.
Kd is apparent (estimated from mating counts) and averaged on the log scale over replicates with a signal. Smaller is tighter.
Where one sequence has several entries in the source, the replicates are pooled.

Variant S25F+S26M+V29W+W56N+T59Q+S62H showed 1.3 nM (6 of 6 replicates). Variant S26D+S28G+V29A+W56G gave 1.2 nM (6 of 6 replicates). Variant W56E+S62D gave 4.8 nM (12 of 12 replicates). For S25L+Q27C+V29E+W56E, the assay gave 1.2 nM (6 of 6 replicates). With S25L+L30P+W56E+E61M the result was 440 pM (6 of 6 replicates). Variant S25L+N35V+W56N+E61M gave 2.2 nM (6 of 6 replicates).

With Q27I+V29Y+R34Q+K36T+W56E the result was 3.2 nM (6 of 6 replicates). For S25V+W56N+Q96S, the assay gave 630 pM (6 of 6 replicates). For S25L+S26P+V29M+W56E+T59Q, the assay gave 500 pM (6 of 6 replicates). For S25L+S33D+N35V+W56N+T59Q, the assay gave 940 pM (6 of 6 replicates). For R34E+S38P+L100Y, the assay gave 530 nM (6 of 6 replicates). Variant Y31Q+W56E+S58M gave 2.7 nM (6 of 6 replicates).

With S25L+V29E+W56H+Q96D the result was 2.4 nM (6 of 6 replicates). Variant S25I+K36Q+E61L showed 200 nM (5 of 6 replicates). For L30N+R34S+N35Q+E61I, the assay gave 44 nM (3 of 6 replicates). Variant V29R+S38D gave 6.5 µM (1 of 6 replicates). Variant S25Q+R34G+W56D+E61S showed 740 pM (6 of 6 replicates). Variant S25F+N35T+K36Y+W56N+E61Y showed 1.4 nM (6 of 6 replicates).

Variant S25L+S26D+V29Q+W56N+T59Q+E61L gave 340 pM (6 of 6 replicates). Variant Y31F+W56D+Y97I+L102I+S103W showed 4.6 nM (6 of 6 replicates). With S25Y+V29M+S38N+W56E the result was 500 pM (6 of 6 replicates). Variant Y31P+S33P+W56D showed 520 pM (6 of 6 replicates). Variant W56A+S62N+L102C showed 8.7 nM (6 of 6 replicates). Variant S25L+S26E+V29I+L30Q+W56N gave 810 pM (6 of 6 replicates).

With S26E+W56H+S62D+R99Q the result was 1.7 nM (6 of 6 replicates). Variant S25L+L100M+S103L showed 44 nM (6 of 6 replicates). Variant S25R gave 1.2 µM (4 of 6 replicates). Variant S25L+V29W+W56N gave 540 pM (6 of 6 replicates). With S25L+S26E+Q27F+V29W+W56N+T59Q the result was 720 pM (6 of 6 replicates). Variant S25V+S26Y+V29Y+W56N showed 490 pM (6 of 6 replicates).

With S25L+S26E+V29D+W56N+S62Q the result was 450 pM (6 of 6 replicates). For S25L+S26Q+V29W+K36C+W56N+T59Q, the assay gave 2.9 nM (6 of 6 replicates). Variant S25L+S26Q+V29E+W56N+T59Q+E61C showed 2.6 nM (6 of 6 replicates). With S25L+N35M+W56D+E61C+S103E the result was 650 pM (6 of 6 replicates). Variant Q27L+V29W+R34Y+K36S+W56E+S103D gave 300 nM (6 of 6 replicates). For S25L+S26E+V29Q+L30N+K36Q+W56N, the assay gave 1.3 nM (6 of 6 replicates).

Variant Y31A+W56M+E61S gave 16 nM (6 of 6 replicates). For S28L+R34S+K36T+W56S+Y97C+H98S, the assay gave 7.7 nM (6 of 6 replicates). Variant S26E+Q27T+S28G+W56G gave 620 pM (6 of 6 replicates). For Y31M+E32Q, the assay gave 100 nM (6 of 6 replicates). Variant S25F+V29Y+W56N+T59Y showed 440 pM (6 of 6 replicates). For S25L+S26R+V29Q+W56N+E61L, the assay gave 86 nM (6 of 6 replicates).

With Q27I+R34N the result was 20 nM (5 of 6 replicates). With Q27S+V29Y+W56A the result was 1.5 nM (6 of 6 replicates). With S25L+S26R+Q27M+V29T+S62V the result was 8.3 nM (6 of 6 replicates). Variant S25V+S26T+L30N+W56N+T59K+R99M gave 2.6 nM (6 of 6 replicates). Variant S25V+L30G+E32G+W56E showed 3.4 nM (6 of 6 replicates). Variant S25L+V29D+W56E showed 430 pM (6 of 6 replicates).

Variant S25V+S28E+V29N+W56D gave 420 pM (6 of 6 replicates).

Values of this round are not directly comparable with the first-round values of the same sequences.
The authors' rule: three or more of the six replicates give a measured affinity, fewer mean a poor binder.
Empty control strains, which show no peptide, gave a signal in 4% of pairings with all light chain designs; the median was 430 nM and 95% of these signals were weaker than 38 nM. No background was subtracted.

From the AlphaSeq antibody data of Li et al. 2023 (doi:10.1038/s41467-023-39022-2), copy in the FLAb collection.